Patent US20050008633A1, “Chemical and physical modulators of bioavailability of inhaled compositions” (Advanced Inhalation Research Inc., priority 2003, published 2005)

Assay: Pharmacokinetic studies: serum levels and absolute bioavailability after intratracheal instillation in rats
Settings: 40 μg insulin intratracheal, compared to IV 10 μg, mean±SEM

For insulin, the bioavailability of insulin (rats given Cl2MDP liposomes 1 day before) was 8.7±2.9%, the bioavailability of insulin (rats given PBS liposomes 1 day before) was 13.3±3.4% and the bioavailability of insulin (untreated rats) was 3.1±0.7%.
